Measured values reported in patent US11597737B2, “Small molecule inhibitors selective for polo-like kinase proteins” (UNIVERSITY OF SOUTH CAROLINA, priority 2016, dated 2023).

Sequences of proteins named here, by UniProt entry; tags and fusion partners are left off. Residues count along the entry.
UniProt P53350, 367-603: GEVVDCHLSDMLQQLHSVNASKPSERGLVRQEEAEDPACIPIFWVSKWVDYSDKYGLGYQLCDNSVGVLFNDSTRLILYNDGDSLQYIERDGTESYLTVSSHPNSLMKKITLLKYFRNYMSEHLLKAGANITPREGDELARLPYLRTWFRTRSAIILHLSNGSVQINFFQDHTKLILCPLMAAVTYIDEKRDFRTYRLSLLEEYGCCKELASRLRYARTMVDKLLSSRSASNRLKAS

Legend:
PLK1 PBD (367-603) = molecular target: T1, PLK1 PBD (367-603) (Homo sapiens, UniProt P53350); assay: Fluorescence polarization assay, PLK1 PBD; settings: PLK1 PBD binding
T1 construct: PLK1 PBD (367-603); purchased BPS Biosciences Inc. (San Diego, Calif.)
Experimental: (§1) Fluorescence Polarization Assay
(§2) Materials were dissolved in DMSO (10 mM) and diluted from 10 nM to 600 μM (maximum of 6% DMSO tolerance in the assay). […] Incubation was carried out at room temperature for 45 minutes. Fluorescence was measured using a DTX 880 plate reader and Multimode Analysis software (Beckman Coulter, Brea, Calif.). […] Each data point was performed in triplicate for every experiment, and experiments were performed at least three times. An IC50 value for each compound was calculated from linear regression analysis of the plots.

PLK3 PBD (335-646) = molecular target: T2, PLK3 PBD (335-646) (Homo sapiens, UniProt Q9H4B4); assay: Fluorescence polarization assay, PLK3 PBD; settings: PLK3 PBD binding
T2 construct: PLK3 PBD (335-646); purchased BPS Biosciences Inc. (San Diego, Calif.)
T2 sequence (Q9H4B4 335-646): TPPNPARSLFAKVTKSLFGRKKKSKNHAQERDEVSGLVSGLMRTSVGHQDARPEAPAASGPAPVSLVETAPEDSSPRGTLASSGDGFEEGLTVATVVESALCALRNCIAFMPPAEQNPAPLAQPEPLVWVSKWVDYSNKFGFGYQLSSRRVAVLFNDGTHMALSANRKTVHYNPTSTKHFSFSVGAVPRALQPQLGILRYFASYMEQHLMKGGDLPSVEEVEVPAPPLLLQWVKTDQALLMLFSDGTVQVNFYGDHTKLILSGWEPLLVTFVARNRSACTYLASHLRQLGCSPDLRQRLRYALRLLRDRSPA
Experimental: as §1, §2

[1] = system: HCT-116 (p53+/+) colon cancer cells; assay: Cell viability assay (MTT), HCT116 p53+/+; type: cell-based; settings: 72 hours
Experimental: (§3) Exponentially growing cells were plated in 96-well dishes. Dose response curves were used to treat cells for 72 hours with inhibitors. Following the three-day treatment, cell viability was measured using the MTT (3-(4,5-dimethylthiazol-2-yl)-2,5-diphenyltetrazolium bromide) colorimetric assay. Cells were incubated for 3 hours with MTT allowing viable cells to metabolize the tetrazolium dye to a purple colored solution.

[2] = system: HeLa cervical cancer cells; assay: Cell viability assay (MTT), HeLa; type: cell-based; settings: 72 hours
Experimental: HeLa cervical cancer cells were obtained from ATCC (Manassas, Va.). […] Cells were maintained in DMEM (Invitrogen™, Carlsebad, Calif.) supplemented with 10% FBS or Corning© Nu-Serum™ (BD™ Biosciences, Franklin Lakes, N.J.) and 1% penicillin/streptomycin (Invitrogen™) in a humidified incubator and 5% CO2 at 37° C.
as §3

IC50 (PLK3 PBD (335-646)) [µM]	IC50 [1] [µM]	IC50 [2] [µM]	SMILES	IC50 (PLK1 PBD (367-603)) [µM]
			CCCCCCc1ccc(C(=O)Nc2ccccc2C(=O)O)cc1 [SCCP ID No. 5881]	18.4 ± 5.3
9.96 ± 1.52			CCCCCCCCc1ccc(C(=O)Nc2cccc([N+](=O)[O-])c2C(=O)O)cc1 [SCCP ID No. 5939]	
13.2 ± 0.46	12.4 ± 2.7	12.7 ± 2.3	CCCCCCCCc1ccc(C(=O)Nc2cccc(F)c2C(=O)O)cc1 [SCCP ID No. 5932]	
7.68 ± 2.41			CCCCCCCCc1ccc(C(=O)Nc2ccc(C)cc2C(=O)O)cc1 [SCCP ID No. 5915]	
